From PubChem
Rows were chosen to be rich in hits. Some 0.45% of all compounds tested hit in one or more screens of this group.
UUG fidelity: modulators of start codon recognition fidelity in yeast. S. cerevisiae UUG-firefly luciferase reporter, luminescence/redox ratio. activity score, % at 18.7 µM. 350,000 tested, 0.13% active;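 active = replicate mean at a twofold rise or more, about +100% in these data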;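 note: firefly luciferase made from a UUG start codon reports start codon fidelity; reporter light over untreated wells divided by growth signal over untreated wells; some hits fall short of that in this replicate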
Tn6 DDE FP: DD(E)-Tn6 binding inhibition, primary FP screen. Fibrin DD(E) TRITC-Tn6 fluorescence polarization displacement. inhibition, % at 8.3 µM. AID 720509. 370,000 tested, 0.21% active. P02675;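 active = inhibition above a per-campaign cutoff: mean of compounds within control limits plus 3 SD, cut at about 15% in these data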
DDE Tn7 FP inh: inhibitors of Tn7 peptide binding to human fibrin DD(E). inhibition, % at 8.3 µM. AID 720508. FP displacement of FITC-Tn7 peptide from fibrin DD(E); 0% = median of compound wells per plate. 370,000 tested, 0.13% active;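 active = inhibition above the mean of compounds falling within the control limits plus 3 SD of them, cut at about 14% in these data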
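Assay system: human fibrin DD(E) protein / Input: 2 µM fibrin DD(E) / Benchmarks: high control of 10 µM Aha-Tn7 peptide / Measured by: fluorescence polarization of the labelled Tn7 tracer / Medium: Tris buffer with calcium and detergent, pH 7.8 / Timing: 10 min compound pre-incubation, 3 h probe incubation at room temperature / Repeats: one replicate per compound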
PglD inh: PglD (C. jejuni) enzyme inhibition; purified PglD enzyme, DTNB colorimetric CoA detection; inhibition, % at 12.5 µM; 360,000 tested, 0.098% active; in the data active = inhibition above about 16%, passing the limit was not always enough
DDE Tn7 confirm: confirmation of inhibitors of Tn7 binding to human fibrin DD(E); FP displacement of TRITC-Tn7 peptide from DD(E); 0% set at plate's compound-well median; shares compounds with DDE Tn7 FP inh; AID 720628; 460 tested, 5% active; inhibition, % at 8.3 µM;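 active = inhibition above the campaign cutoff, the mean of compounds within control limits plus 3 SD, cut at about 14% in these data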;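 also: displacers lower polarization since freed probe rises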
Tn7 DDE ctr: counter-screen for inhibitors of Tn7 peptide binding to fibrin DD(E) | shares compounds with DDE Tn7 FP inh | TRITC-Tn7 probe displacement, fluorescence polarization | inhibition, % at 8.3 µM | 460 tested, 3% active | AID 720633;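 active = inhibition above the cutoff, the mean of compounds lying between the control bounds plus 3 SD of those compounds, cut at about 17% in these data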
Each line names hits and unclear results; the compound was inactive in the other large screens (follow-up assays come after a bar, where they were run).

COc1ccc(CNC(=O)C[C@H]2C[C@@H]3c4cc(NS(C)(=O)=O)ccc4O[C@@H]3[C@@H](CO)O2)cc1	none (no result: Tn6 DDE FP, DDE Tn7 FP inh)
C/C(=N\NC(=O)Cn1cnc2ccccc21)c1cccs1	DDE Tn7 FP inh 17.1 (no result: UUG fidelity, PglD inh) | DDE Tn7 confirm inactive | Tn7 DDE ctr inactive
COc1ccccc1C#Cc1ccc([C@H]2[C@@H](C#N)N(C(=O)C3CC3)[C@H]2CO)cc1	none (no result: UUG fidelity, Tn6 DDE FP, DDE Tn7 FP inh)
O=C1CCC/C(=N/NC(=O)c2sc3ccccc3c2Cl)C1	DDE Tn7 FP inh 43.9 (no result: UUG fidelity, PglD inh) | DDE Tn7 confirm inactive | Tn7 DDE ctr inactive
COc1cc(C2c3cc4c(cc3OC(NCc3ccccc3)C2C)OCO4)cc(OC)c1OC (stereo not given)	DDE Tn7 FP inh 13.9 (no result: UUG fidelity, PglD inh) | DDE Tn7 confirm inactive | Tn7 DDE ctr inactive
Oc1cccc(Nc2ccccc2)c1	DDE Tn7 FP inh 14.2 | DDE Tn7 confirm inactive | Tn7 DDE ctr inactive
c1ccc(Nc2cccc(Nc3ccccc3)c2)cc1	none (no result: UUG fidelity, PglD inh)
COc1ccc(OC)c(NC(=S)N2CCN(Cc3ccccc3)CC2)c1	none (no result: UUG fidelity, PglD inh)
COc1ccc(NC(=S)N2CCN(Cc3ccccc3)CC2)c(OC)c1	DDE Tn7 FP inh 14.7 (no result: UUG fidelity, PglD inh) | DDE Tn7 confirm inactive | Tn7 DDE ctr inactive
O=C(c1ccccc1)c1ccc2c(c1)OCCOCCOCCOCCO2	DDE Tn7 FP inh 14.2 (no result: UUG fidelity, PglD inh) | DDE Tn7 confirm inactive | Tn7 DDE ctr inactive
COc1cc2c(c(OC)c1OC)-c1ccc(NCc3ccccc3)c(=O)cc1C(NC(C)=O)CC2 (stereo not given)	DDE Tn7 FP inh 14.6 | DDE Tn7 confirm inactive | Tn7 DDE ctr inactive
C=CCOc1ccc(/C=C/C(=O)N2CCCN(S(=O)(=O)c3c(C)noc3C)CC2)cc1	DDE Tn7 FP inh 14.6 (no result: UUG fidelity, PglD inh) | DDE Tn7 confirm inactive | Tn7 DDE ctr inactive
Cc1cc(NC(=O)CSc2nnc(-c3ccoc3C)n2N)no1	none
CCOc1ccc(C(C)=O)cc1CSc1nnc(-c2ccoc2C)n1N	DDE Tn7 FP inh 16.5 | DDE Tn7 confirm inactive | Tn7 DDE ctr inactive
CN(C)/C=N/c1cc(=O)[nH]c(=O)n1CC1CC1	none
C=CCn1c(=O)[nH]c2nc3cc(N=CN(C)C)c(C)cc3nc2c1=O	DDE Tn7 FP inh 23.4 | DDE Tn7 confirm inactive | Tn7 DDE ctr inactive
C[C@@H]1CN([C@@H](C)CO)C(=O)c2cc(C#Cc3ccc(F)cc3)cnc2O[C@H]1CN(C)Cc1ccccn1	none (no result: Tn6 DDE FP, DDE Tn7 FP inh)
Cc1ccc(NC(=S)NCc2ccc(Cl)cc2)c(OC(F)F)c1	DDE Tn7 FP inh 13.9 | DDE Tn7 confirm inactive | Tn7 DDE ctr inactive
CC(C)C1C(C#N)=C(N)SC(N)=C1C#N	DDE Tn7 FP inh 14.5 | DDE Tn7 confirm inactive | Tn7 DDE ctr inactive
CCC(CC)C1C(C#N)=C(N)SC(N)=C1C#N	none
COc1ccccc1N(C)S(=O)(=O)c1ccc(C(=O)OCC(=O)NCC(F)(F)F)cc1	DDE Tn7 FP inh 14.0 (no result: UUG fidelity, PglD inh) | DDE Tn7 confirm inactive | Tn7 DDE ctr inactive
COc1ccccc1N(C)S(=O)(=O)c1ccc(C(=O)OCC(=O)NCc2cccs2)cc1	none
CCOC(=O)C1(Cc2cccc(F)c2)CCN(Cc2ccon2)CC1	DDE Tn7 FP inh 14.3 (no result: UUG fidelity, PglD inh) | DDE Tn7 confirm inactive | Tn7 DDE ctr inactive
CCOC(=O)C1(Cc2ccc(Cl)cc2)CCN(Cc2ccon2)CC1	none (no result: UUG fidelity, PglD inh)
Cc1cc(C)n(-c2ccc(C(=O)O)cc2)n1	DDE Tn7 FP inh 13.9 (no result: UUG fidelity, PglD inh) | DDE Tn7 confirm inactive | Tn7 DDE ctr inactive
Cc1ccccc1S(=O)(=O)N1CC[C@@H]2[C@H](CO)Nc3ccc(-c4cccc(F)c4)cc3[C@@H]21	none (no result: Tn6 DDE FP, DDE Tn7 FP inh)
N/C(=N\OC(=O)c1ccc2c(c1)OCO2)c1ccc(Cl)cc1	none
N/C(=N\OC(=O)c1ccc2c(c1)OCO2)c1ccncc1	DDE Tn7 FP inh 14.9 | DDE Tn7 confirm inactive | Tn7 DDE ctr inactive
Cc1cc(C)nc(NS(=O)(=O)c2ccc(N/C=C\C(=O)c3ccc(Cl)cc3)cc2)n1	DDE Tn7 FP inh 14.3 | DDE Tn7 confirm inactive | Tn7 DDE ctr inactive
Cc1ccc(OCCC(=O)OCC(=O)N2CCN(S(=O)(=O)c3ccc(Cl)cc3)CC2)cc1	DDE Tn7 FP inh 14.7 (no result: UUG fidelity, PglD inh) | DDE Tn7 confirm inactive | Tn7 DDE ctr inactive
COc1ccc(-c2ccc([C@H]3[C@H]4C=CC[C@@H](C)[C@@H]4C(=O)N3Cc3ccccc3)c(F)c2)cc1OC	DDE Tn7 FP inh 14.2 | DDE Tn7 confirm inactive | Tn7 DDE ctr inactive
